Experimental data taken from ChEMBL document CHEMBL3259633 (J Med Chem, 2014).

Columns and labels:
Mus musculus [1] = species: Mus musculus; experiment: animal or person; conditions: Swiss, sc
Mus musculus [2] = species: Mus musculus; experiment: animal or person; conditions: Swiss, Abdomen, sc, 5 min

CO[C@@]12CC[C@@]3(C[C@@H]1[C@](C)(O)C(C)(C)C)[C@H]1Cc4ccc(O)c5c4[C@@]3(CCN1CC1CC1)[C@H]2O5 [BUPRENORPHINE]
ED50 (Mus musculus [1]): 0.07 mg/kg | ED50 (Mus musculus [2]): 0.16 mg/kg
